Data set [1] concerns Rattus norvegicus. The data set is described as follows: Anticonvulsant activity in po dosed Sprague-Dawley albino rat assessed as inhibition of maximal electroshock-induced seizures after 0.5 hrs. In kind it is functional. Put shortly:
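Male albino Sprague-Dawley rats dosed orally; maximal electroshock seizures, protection scored as blockade of hind limb extension, tested at set times after dosing; ED50 in mg/kg from quantitative evaluation for active compounds.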

Data set [2] relates to Rattus norvegicus. The data set is described as follows: Behavioral toxicity in po dosed Sprague-Dawley albino rat. The note with it: in vivo. In kind it is organism-based. In a few lines: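 Oral dosing in male albino Sprague-Dawley rats with behavioral toxicity observation at set times after dosing, doses up to 500 mg/kg.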
The species named for data set [3] is Rattus norvegicus. The data set is described as follows: Protective index, ratio of TD50 for Sprague-Dawley albino rat to anticonvulsant ED50 for Sprague-Dawley albino rat. It is filed as functional. In a few lines: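 Rat, oral: behavioral-toxicity TD50 divided by MES ED50, both in mg/kg.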

The record followed here is ChEMBL document CHEMBL1157779, “Merging the structural motifs of functionalized amino acids and alpha-aminoamides: compounds with significant anticonvulsant activities” (J Med Chem, 2010).

Where only a bound is given, the exact number is not on record here.

For `COC[C@@H](NC(C)=O)C(=O)NCc1ccc(OCc2ccccc2F)cc1`, in data set [1], the 50% effective dose (ED50) was 11 mg/kg.

As to `COC[C@@H](NC(C)=O)C(=O)NCc1ccc(OCc2ccc(F)cc2)cc1`, the median effective dose (ED50) in data set [1] amounted to 5.8 mg/kg. Besides, the TD50 in data set [2] is over 500 mg/kg. The “Ratio TD50/ED50” value in data set [3] was over 86.
